# According to BigSolDB 2.1:
compound,measurement,setting,value
Cc1ccc(N)c([N+](=O)[O-])c1,solubility (mole fraction),"in methanol, 310.65 K",0.0248
same,solubility (mole fraction),"in n-propanol, 308.15 K",0.0301
